Measured values from patent US20260028326A1, “COMPOUND BASED ON ISOINDOLINE-SUBSTITUTED GLUTARIMIDE BACKBONE AND USE THEREOF” (GLUETACS THERAPEUTICS (SHANGHAI) CO., LTD., priority 2022, published 2026).
pIC50: −log10 of the molar value.

Protein sequences, listed by entry. Tags and fused reporters are not part of them.
UniProt Q96SW2, whole entry: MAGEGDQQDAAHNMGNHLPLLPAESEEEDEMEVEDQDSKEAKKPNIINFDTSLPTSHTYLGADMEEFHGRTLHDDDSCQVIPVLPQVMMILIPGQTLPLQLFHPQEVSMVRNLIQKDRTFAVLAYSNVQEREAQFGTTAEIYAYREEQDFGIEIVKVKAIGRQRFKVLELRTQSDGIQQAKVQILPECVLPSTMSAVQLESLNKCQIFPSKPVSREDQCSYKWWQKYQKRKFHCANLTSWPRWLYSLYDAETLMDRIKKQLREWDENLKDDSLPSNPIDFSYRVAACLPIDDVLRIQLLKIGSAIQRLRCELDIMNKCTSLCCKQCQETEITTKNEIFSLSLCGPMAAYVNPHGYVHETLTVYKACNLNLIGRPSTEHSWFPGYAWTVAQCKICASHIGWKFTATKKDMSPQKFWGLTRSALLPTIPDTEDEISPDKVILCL
UniProt Q13422, whole entry: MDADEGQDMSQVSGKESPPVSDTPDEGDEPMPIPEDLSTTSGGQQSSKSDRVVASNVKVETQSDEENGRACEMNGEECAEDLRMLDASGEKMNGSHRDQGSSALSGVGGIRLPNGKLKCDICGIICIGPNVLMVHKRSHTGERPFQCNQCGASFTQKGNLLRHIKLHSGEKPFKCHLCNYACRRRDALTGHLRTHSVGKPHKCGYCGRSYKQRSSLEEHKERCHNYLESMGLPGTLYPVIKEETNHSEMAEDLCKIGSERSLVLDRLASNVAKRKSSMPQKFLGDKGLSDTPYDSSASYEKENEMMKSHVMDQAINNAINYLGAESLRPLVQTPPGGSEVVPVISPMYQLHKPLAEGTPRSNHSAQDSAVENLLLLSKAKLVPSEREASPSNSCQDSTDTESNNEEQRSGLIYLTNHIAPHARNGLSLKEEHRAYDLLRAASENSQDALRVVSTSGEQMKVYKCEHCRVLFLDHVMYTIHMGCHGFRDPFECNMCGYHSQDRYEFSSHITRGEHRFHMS
UniProt Q9UKT9, whole entry: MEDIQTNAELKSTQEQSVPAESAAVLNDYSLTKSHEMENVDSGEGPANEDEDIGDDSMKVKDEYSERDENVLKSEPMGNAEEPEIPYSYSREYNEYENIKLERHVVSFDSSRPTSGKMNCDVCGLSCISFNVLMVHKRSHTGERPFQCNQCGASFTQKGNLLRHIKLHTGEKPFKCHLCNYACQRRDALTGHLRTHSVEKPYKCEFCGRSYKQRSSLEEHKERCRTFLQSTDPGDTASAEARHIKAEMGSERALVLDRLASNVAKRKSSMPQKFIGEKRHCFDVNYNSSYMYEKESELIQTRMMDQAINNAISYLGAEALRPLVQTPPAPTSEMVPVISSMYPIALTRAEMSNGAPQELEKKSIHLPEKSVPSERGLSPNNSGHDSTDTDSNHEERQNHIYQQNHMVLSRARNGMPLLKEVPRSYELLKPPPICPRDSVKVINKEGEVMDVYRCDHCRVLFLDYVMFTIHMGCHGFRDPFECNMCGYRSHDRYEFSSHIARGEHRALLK
UniProt P15170, whole entry: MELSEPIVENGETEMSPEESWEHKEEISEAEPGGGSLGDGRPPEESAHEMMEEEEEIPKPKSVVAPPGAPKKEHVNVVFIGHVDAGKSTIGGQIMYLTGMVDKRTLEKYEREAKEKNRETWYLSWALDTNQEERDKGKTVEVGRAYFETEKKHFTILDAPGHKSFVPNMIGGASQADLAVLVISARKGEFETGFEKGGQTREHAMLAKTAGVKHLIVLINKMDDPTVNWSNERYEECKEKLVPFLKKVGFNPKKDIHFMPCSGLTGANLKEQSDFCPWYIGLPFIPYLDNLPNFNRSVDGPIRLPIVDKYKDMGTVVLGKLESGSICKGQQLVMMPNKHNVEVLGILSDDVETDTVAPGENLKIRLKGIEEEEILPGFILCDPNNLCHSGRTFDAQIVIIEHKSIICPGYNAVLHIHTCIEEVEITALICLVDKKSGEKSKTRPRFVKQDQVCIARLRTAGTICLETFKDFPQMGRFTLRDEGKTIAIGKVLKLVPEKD
UniProt Q16531, whole entry partner: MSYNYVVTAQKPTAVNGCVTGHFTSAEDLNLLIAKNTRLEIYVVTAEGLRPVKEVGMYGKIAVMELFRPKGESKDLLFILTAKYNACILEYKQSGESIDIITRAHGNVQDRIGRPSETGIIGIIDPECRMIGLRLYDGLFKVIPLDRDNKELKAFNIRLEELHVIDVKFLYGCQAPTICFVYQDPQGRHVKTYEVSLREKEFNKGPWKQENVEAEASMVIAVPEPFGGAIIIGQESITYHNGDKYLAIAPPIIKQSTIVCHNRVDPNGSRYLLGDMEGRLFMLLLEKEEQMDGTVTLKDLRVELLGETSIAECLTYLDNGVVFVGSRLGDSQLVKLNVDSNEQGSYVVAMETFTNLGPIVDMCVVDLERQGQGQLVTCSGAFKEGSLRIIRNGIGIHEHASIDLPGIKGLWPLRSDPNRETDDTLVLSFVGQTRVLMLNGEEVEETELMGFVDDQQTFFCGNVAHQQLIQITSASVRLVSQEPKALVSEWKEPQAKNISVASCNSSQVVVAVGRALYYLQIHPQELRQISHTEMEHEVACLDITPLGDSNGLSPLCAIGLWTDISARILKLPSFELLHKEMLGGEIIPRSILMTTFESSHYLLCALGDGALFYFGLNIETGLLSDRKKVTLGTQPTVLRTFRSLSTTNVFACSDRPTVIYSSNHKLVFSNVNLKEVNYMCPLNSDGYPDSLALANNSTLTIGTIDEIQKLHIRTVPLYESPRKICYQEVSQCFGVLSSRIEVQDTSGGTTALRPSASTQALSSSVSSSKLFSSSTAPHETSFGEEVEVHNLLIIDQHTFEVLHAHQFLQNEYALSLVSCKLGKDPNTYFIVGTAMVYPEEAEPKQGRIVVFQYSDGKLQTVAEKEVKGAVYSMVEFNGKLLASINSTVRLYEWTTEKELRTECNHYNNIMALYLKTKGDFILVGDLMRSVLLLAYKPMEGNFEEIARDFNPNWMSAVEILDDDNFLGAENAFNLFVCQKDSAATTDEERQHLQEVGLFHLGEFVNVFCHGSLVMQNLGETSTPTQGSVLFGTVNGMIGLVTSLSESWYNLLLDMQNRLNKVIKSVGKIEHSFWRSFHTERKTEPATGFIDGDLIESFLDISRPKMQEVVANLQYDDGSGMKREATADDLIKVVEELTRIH

Experiments:
[1] = target: human Cereblon WT GST-tagged protein (Homo sapiens (Human), UniProt Q96SW2); experiment: CRBN-binding affinity, HTRF (CEREBLON BINDING kit); details: read-out: HTRF IC50
[2] = target: IKZF1 protein (Homo sapiens (Human), UniProt Q13422+Q96SW2); experiment: Western-blot assay of substrate protein degradation in hPBMC, IKZF1; assay type: cell-based; details: hPBMC cells, compound 500 nM, 24 hours
[3] = target: IKZF3 protein (Homo sapiens (Human), UniProt Q96SW2+Q9UKT9); experiment: Western-blot assay of substrate protein degradation in hPBMC, IKZF3; assay type: cell-based; details: hPBMC cells, compound 500 nM, 24 hours
[4] = target: GSPT1 protein (Homo sapiens (Human), UniProt P15170+Q96SW2); experiment: Western-blot assay of substrate protein degradation in hPBMC, GSPT1; assay type: cell-based; details: hPBMC cells, compound 500 nM, 24 hours

`CC1(C)CCC(CN2CC3CCC2CN3C(=O)c2ccc3c(c2)CN(C2CCC(=O)NC2=O)C3=O)=C(c2ccc(F)cc2)C1` (stereo not shown) was tested, and the pIC50 [1] was 6.01, the “residual substrate protein level, IKZF1” value [2] was “B (B represents a residual substrate protein level of >50%)” and the “residual substrate protein level, IKZF3” value [3] was “B (B represents a residual substrate protein level of >50%)”. The “residual substrate protein level, GSPT1” value [4] was “A (A represents a residual substrate protein level of <50%)”.
